# Values of other authors as cited in patent US5811073A, “Method for radioisotopic detection and localization of inflammation in a host” (President and Fellows of Harvard College, priority 1995, dated 1998).
# Test system: sterile and bacterial inflammation
# Settings: i.v., 200-300 μCi gallium-67 citrate, 300-500 μCi ^99m Tc-human serum albumin, 100-150 μCi ^111 In-IgG or ^125 I-IgG; cited from earlier work
substance,measurement,value
"^99m Tc-human serum albumin: ^99m Tc-human serum albumin (Medi-Physic, Richmond, Calif.)",time of maximum target to background tissue ratio for image intensity,3 h
